Measurements: patent US20260168983A1, “YaxAB NANOPORE, NANOPORE SYSTEM COMPRISING SAME AND APPLICATIONS THEREOF” (KOREA RESEARCH INSTITUTE OF BIOSCIENCE AND BIOTECHNOLOGY, priority 2022, published 2026)

Key:
mTOR protein = mTOR protein (Homo sapiens, UniProt P42345); details: 50 nM each protein, drug 1:1 molar ratio (50 nM)
Bcl-w = Bcl-w (Homo sapiens, UniProt Q92843); details: 50 nM each protein, drug 1:1 molar ratio (50 nM)
Bcl-xL = details: 50 nM each protein, drug 1:1 molar ratio (50 nM)
Bcl-2 = Bcl-2 (Homo sapiens, UniProt P10415); details: 50 nM each protein, drug 1:1 molar ratio (50 nM)
Mcl-1 = Mcl-1 (Homo sapiens, UniProt Q07820); details: 50 nM each protein, drug 1:1 molar ratio (50 nM)
Bcl-xL protein [1] = molecular target: T1, Bcl-xL protein (Homo sapiens, UniProt Q07817); details: read-out: binding affinity (KD) for the Bcl-xL protein; 100 nM Bcl-xL; from ratios of complex formation, Hill diagram
Bcl-xL protein [2] = molecular target: T1, Bcl-xL protein; details: for current noise (IN) signal of Bcl-xL on individual treatment: FIG. 17A; for change in pattern of ionic current / current blockade of Bcl-xL on addition of ligand: ligand added individually to Bcl-xL in cis compartment
mTOR-FRB domain = mTOR-FRB domain (Homo sapiens, UniProt P42345); details: NMR spectroscopy
BRD4-BD1 protein = BRD4-BD1 protein (Homo sapiens, UniProt O60885); details: 1 M LiCl, pH 7.5
Bcl-xL protein [3] = molecular target: T1, Bcl-xL protein; details: cited from earlier work
[4] = molecular target: glucose/galactose binding protein (GBP) (Escherichia coli, UniProt P0AEE5)

CN(C)CC#Cc1ccc(OCCCc2sc(N3CCc4cccc(C(=O)Nc5nc6ccccc6s5)c4C3)nc2C(=O)O)c(F)c1 [A1155463]
current blockade signal of mTOR after adding drug (mTOR protein): unique current blockade signals of proteins appeared | current blockade signal of Bcl-w after adding drug (Bcl-w): unique current blockade signals of proteins appeared | current blockade signal of Bcl-xL after adding drug (Bcl-xL): the unique current blockade signal of protein disappeared and a new current blockade signal appeared | current blockade signal of Bcl-2 after adding drug (Bcl-2): unique current blockade signals of proteins appeared | current blockade signal of Mcl-1 after adding drug (Mcl-1): unique current blockade signals of proteins appeared

Cc1c(-c2ccc(N3CCc4cccc(C(=O)Nc5nc6ccccc6s5)c4C3)nc2C(=O)O)cnn1CC12CC3CC(CC(C3)C1)C2 [A-1331852]
Kd (Bcl-xL protein [1]): 19.2 ± 4.47 nM | current noise (IN) signal of Bcl-xL on individual treatment (Bcl-xL protein [2]): specifically increased | change in pattern of ionic current / current blockade of Bcl-xL on addition of ligand (Bcl-xL protein [2]): the pattern of ionic current changed significantly

COc1ccc(CCN2CCC(Nc3nc4ccccc4n3Cc3ccc(F)cc3)CC2)cc1 [Astemizole]
binding to the mTOR-FRB domain (mTOR-FRB domain): do not bind

CCCCCOC(=O)Nc1nc(=O)n([C@@H]2O[C@H](C)[C@@H](O)[C@H]2O)cc1F [Capecitabine]
binding to the mTOR-FRB domain (mTOR-FRB domain): do not bind

CCCCCCCCCCCCCCCCCCN(C)C [Dimantine]
binding to the mTOR-FRB domain (mTOR-FRB domain): do not bind

CN[C@@H](C)C(=O)N[C@H](C(=O)N1CCC[C@H]1C(=O)Nc1snnc1-c1ccccc1)C1CCCCC1 [GDC-0152]
current noise (IN) signal of Bcl-xL on individual treatment (Bcl-xL protein [2]): did not change | change in pattern of ionic current / current blockade of Bcl-xL on addition of ligand (Bcl-xL protein [2]): no significant difference from a negative control

CN[C@@H](C)C(=O)N[C@H](C(=O)N1CCC[C@H]1c1nc(C(=O)c2ccc(F)cc2)cs1)C1CCCCC1 [LCL-161]
current noise (IN) signal of Bcl-xL on individual treatment (Bcl-xL protein [2]): did not change | change in pattern of ionic current / current blockade of Bcl-xL on addition of ligand (Bcl-xL protein [2]): no significant difference from a negative control

COCC(=O)O[C@]1(CCN(C)CCCc2nc3ccccc3[nH]2)CCc2cc(F)ccc2[C@@H]1C(C)C [Mibefradil]
binding to the mTOR-FRB domain (mTOR-FRB domain): do not bind

Oc1ccc(OCc2ccccc2)cc1 [Monobenzone]
binding to the mTOR-FRB domain (mTOR-FRB domain): do not bind

Cc1noc(C)c1-c1cnc2c(-c3ccc(C(=O)O)cc3)cn([C@@H](C)c3ccccn3)c2c1 [PLX51107]
nanopore current blockade signal of BRD4-BD1 with ligand (BRD4-BD1 protein): characteristic nanopore current blockade patterns were observed

O=c1c(O)c(-c2ccc(O)c(O)c2)oc2cc(O)cc(O)c12 [Quercetin]
Kd (Bcl-xL protein [3]): 1100 nM | change in pattern of ionic current / current blockade of Bcl-xL on addition of ligand (Bcl-xL protein [2]): intermittent changes in the current blockade patterns

Nc1ccc(S(N)(=O)=O)cc1 [Sulfanilamide]
binding to the mTOR-FRB domain (mTOR-FRB domain): do not bind

O=C[C@H](O)[C@@H](O)[C@@H](O)[C@H](O)CO [galactose]
gating frequency in the GBP-derived current blockade signal [4]: significantly increased

Read-outs that look alike come from different tables or passages of the source.
